Experimental data: patent US7018839B2 (priority 1996, dated 2006)

What was measured:
substantia nigra = assay: Behavioural studies: infusion into one substantia nigra, amphetamine challenge, circling; format: in vivo, rats
Method: In these experiments, rats were chronically implanted with a cannula in one substantia nigra and left to recover. After a period of about 3 days, they were infused with either a saline control solution, or a solution containing the 14-mer AChE peptide of the invention at a dose of 1 μl of 10^−5M. After a single infusion, they were challenged daily with a systemic application of amphetamine for the subsequent 10 days.

anti-peptide antibody = assay: Competition assay for binding of antibody to immobilised AChE-peptide; parameters: species or system Rabbits; details: competitor preincubated with antibody in solution; APP and BuChE peptide at even excessive doses
Method: In order to be sure that the antibody recognition of peptides occurs without the possible distortion due to the binding of the peptide to a charged plastic surface, an assay was used in which the critical interaction is studied in solution. […] An aliquot of the antibody was preincubated with potential competitors for binding to the AChE-peptide before presenting the resulting mixture to the peptide bound to the well.

[1] = system: neurons in the substantia nigra

DAEFRHDSGYEVHHQK [APP-peptide]
activity of the nigrostriatal pathway (substantia nigra; doubling the concentration): reverses this effect
activity of the nigrostriatal pathway (substantia nigra; low concentration): increases activity of the nigrostriatal pathway
competition for the binding of antibody to immobilised AChE-peptide (anti-peptide antibody): could not compete
calcium channel opening activity [1]: does not itself exert calcium channel opening activity
effect of the fragment alone on calcium potentials [1]: ineffective
effect on the activity of the AChE fragment [1]: enhance the activity of the AChE fragment
